Test results: PubChem BioAssay AID881 (National Center for Advancing Translational Sciences (NCATS), 2007)
This is a selection; strong and weak results do not stand in their true shares. Activity calls are given as the source filed them. Calls follow the shape of the dose curve; as a rule, active = well fitted inhibition curve with a large enough effect; inconclusive = small, poorly fitted or top-dose-only effect; inactive = no such curve, though single readings can be large or run the other way.
% is scaled to controls: 0 for no effect and ±100 for the full control effect.
Also: nearly all actives have a fitted effect of over 60% in size.

Sequences of proteins named here, by UniProt entry; tags and fusion partners are left off.
UniProt O15296, whole entry: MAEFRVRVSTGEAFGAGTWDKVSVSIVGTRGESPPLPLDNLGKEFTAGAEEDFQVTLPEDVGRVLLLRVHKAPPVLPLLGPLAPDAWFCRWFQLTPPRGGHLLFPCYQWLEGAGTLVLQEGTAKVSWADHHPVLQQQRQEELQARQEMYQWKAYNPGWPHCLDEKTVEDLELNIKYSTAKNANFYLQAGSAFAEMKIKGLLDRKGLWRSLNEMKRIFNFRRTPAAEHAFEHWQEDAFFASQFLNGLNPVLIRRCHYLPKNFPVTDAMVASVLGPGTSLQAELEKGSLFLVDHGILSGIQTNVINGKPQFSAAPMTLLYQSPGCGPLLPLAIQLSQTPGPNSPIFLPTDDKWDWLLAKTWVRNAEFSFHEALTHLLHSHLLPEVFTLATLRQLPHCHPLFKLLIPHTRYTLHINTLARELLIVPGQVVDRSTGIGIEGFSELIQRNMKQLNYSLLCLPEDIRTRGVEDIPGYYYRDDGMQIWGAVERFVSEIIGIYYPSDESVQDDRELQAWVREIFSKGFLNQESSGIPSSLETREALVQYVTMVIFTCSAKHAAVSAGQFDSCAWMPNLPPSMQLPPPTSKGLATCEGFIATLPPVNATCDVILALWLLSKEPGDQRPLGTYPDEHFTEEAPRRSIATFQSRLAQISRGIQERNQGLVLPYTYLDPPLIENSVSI

Each compound was assayed against Polyunsaturated fatty acid lipoxygenase ALOX15B (Homo sapiens) (UniProt O15296) (assay: qHTS Assay for Inhibitors of 15-hLO-2 (15-human lipoxygenase 2)). Conditions: purified 15hLO-2, xylenol orange hydroperoxide absorbance; at 57.1 µM (top of the series).
Excerpt: Assay Overview: NIH Molecular Libraries Screening Centers Network [MLSCN] NIH Chemical Genomics Center [NCGC] MLSCN Grant: MH081283-01A1 PI Name: Holman, T.R., University of California, Santa Cruz Human lipoxygenase 15hLO-2 is a member of the closely related lipoxygenase family of enzymes which catalyze the site-specific oxidation of arachidonic acid to various hormone precursor molecules and as such is a candidate for drug development in a variety of disease areas, such as cancer and inflammation. Inhibition of 15hLO-2 activity was screened by utilizing arachidonic acid as a substrate. The extent of hydroperoxide product formation was measured by a secondary chromogenic reaction in which xylenol orange (XO, Sigma-Aldrich, cat. number 39,818-7) reacts with the ferric ions produced from the reaction between the hydroperoxide and ferrous ions. The Fe(III)-XO complex is characterized with red-shifted absorbance at 560 nm. A purified preparation of human 15hLO-2 was supplied by Professor Ted Holman, University of California, Santa Cruz.
Assay Protocol: Buffer: 25 mM Hepes pH 7.5, 0.01% Triton X-100. Reagents/Controls: Buffer in columns 3 and 4 as negative control (no enzyme). […] The absorbance at 405 and 573 nm were measured using ViewLux (Perkin-Elmer) High-throughput CCD imager and absorbance protocol settings. The 573-to-405 absorbance ratio was used to compute reaction progress.
With `CN(CCCl)CCCl` the activity change, negative = inhibition was inactive: -7.52%.
With `O=[N+]([O-])C(Cl)(Cl)Cl` the activity change, negative = inhibition was inactive: -2.95%.
